{"source": "patent US5985868A", "about": "“Methods and compositions for treating androgen-dependant diseases using optically pure R-(-) casodex” (Sepracor Inc., priority 1998, dated 1999)", "origin": "cited, not measured here", "key": {"[1]": {"test_system": "peripheral androgen receptors"}}}
{"compound": "CC(O)(CS(=O)(=O)c1ccc(F)cc1)C(=O)Nc1ccc(C#N)c(C(F)(F)F)c1", "note": "(racemic) [racemic casodex, 4'-cyano-3-[(4-fluorophenyl)sulfonyl]-2-hydroxy-2-methyl-3'-(trifluoromethyl)propionanilide]", "values": [{"measurement": "antagonist selectivity at peripheral androgen receptors", "setting": "[1]", "value": "very selective antagonist"}, {"measurement": "progestational activity", "setting": "progestational activity", "value": "no progestational or glucocorticoid activity"}]}
